Laboratory results: PMC7018645, “Hijacking the Fusion Complex of Human Parainfluenza Virus as an Antiviral Strategy” (mBio, 2020)
Where two headings read alike, the source gives them in different places.

Legend:
HPIV3 CI-1 eGFP [1] = system: HPIV3 CI-1 eGFP; set-up: method as in PMID 30782664; details: proof-of-concept compound; cited from earlier work
HPIV3 CI-1 eGFP [2] = test: Quantitative PCR for viral genome copy number after compound treatment; set-up: species or system human parainfluenza virus type 3; details: 5 mM to 78 μM, 1 h at 37°C, quantitative reverse transcription-PCR
Procedure: Quantitative PCR, using SYBR green fluorescent dye as a marker for amplification, was performed.

HPIV3 F protein = test: Cryo-electron tomography of intact viral particles (conformation of F)

## N#CCc1cc(NS(=O)(=O)c2cccs2)ccc1O [CM9, reference compound]
HPIV3 CI-1 eGFP [1]
  viral genome copy number after treatment: no change in genome copy number was detected

## CC(=O)Nc1cc(NS(=O)(=O)c2ccc(F)cc2F)ccc1O [PAC-3066]
HPIV3 CI-1 eGFP [2]
  viral genome copy number after treatment: no change in genome copy number was detected
HPIV3 F protein; 250 μM, 37°C
  conformation of F on viral particles: clear alteration in the conformation of F to the postfusion state
  overall morphology of the virus: no differences in the overall morphology of the virus were observed
HPIV3 F protein; 4°C
  conformation of F on viral particles: no difference between the treated and untreated virions
